Test results published in ChEMBL document CHEMBL4406837, “Cyclin dependent kinase (CDK) inhibitors as anticancer drugs: Recent advances (2015-2019)” (Bioorg Med Chem Lett, 2019).

Amino acid sequences for entries named in this document (tags omitted). A change or cut given only in a name is not applied to a line headed by its entry.
UniProt P51946: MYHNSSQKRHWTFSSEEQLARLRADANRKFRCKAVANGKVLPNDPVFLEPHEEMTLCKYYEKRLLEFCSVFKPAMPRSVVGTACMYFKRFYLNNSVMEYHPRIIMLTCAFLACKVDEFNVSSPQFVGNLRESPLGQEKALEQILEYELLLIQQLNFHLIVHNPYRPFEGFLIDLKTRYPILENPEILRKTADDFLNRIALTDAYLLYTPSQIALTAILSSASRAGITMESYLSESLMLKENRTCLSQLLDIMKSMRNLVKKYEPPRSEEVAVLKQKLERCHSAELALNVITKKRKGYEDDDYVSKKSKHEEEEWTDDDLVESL
UniProt P50613: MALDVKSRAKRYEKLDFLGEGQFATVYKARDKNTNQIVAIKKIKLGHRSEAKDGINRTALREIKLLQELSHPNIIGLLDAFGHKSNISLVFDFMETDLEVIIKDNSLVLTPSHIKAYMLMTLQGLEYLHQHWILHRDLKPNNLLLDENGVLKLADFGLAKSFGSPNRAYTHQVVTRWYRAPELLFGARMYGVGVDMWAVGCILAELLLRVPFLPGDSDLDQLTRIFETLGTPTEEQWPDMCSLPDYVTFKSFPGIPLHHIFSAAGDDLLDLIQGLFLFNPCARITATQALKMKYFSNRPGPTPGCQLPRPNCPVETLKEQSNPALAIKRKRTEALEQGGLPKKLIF
UniProt P51948: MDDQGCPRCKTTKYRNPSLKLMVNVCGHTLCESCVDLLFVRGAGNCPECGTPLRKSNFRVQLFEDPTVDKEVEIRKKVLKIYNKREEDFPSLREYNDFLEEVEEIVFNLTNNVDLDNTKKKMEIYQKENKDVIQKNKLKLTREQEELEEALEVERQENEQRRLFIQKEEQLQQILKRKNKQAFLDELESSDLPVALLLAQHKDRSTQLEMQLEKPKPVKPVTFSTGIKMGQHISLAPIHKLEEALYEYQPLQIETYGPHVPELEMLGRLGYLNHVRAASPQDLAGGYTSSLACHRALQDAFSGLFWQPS

What was measured:
[1] = molecular target: T1, CDK7/Cyclin H/MNAT1 (Homo sapiens) (UniProt P51946+P50613+P51948); test: Competitive irreversible inhibition of CDK7/cyclinH/MAT1 (unknown origin) assessed as inactivation constant using 5-FAM YSPTSPSYSPTSPSYSPTSPSKKKK as substrate; type: protein-complex assay
[2] = molecular target: T1, CDK7/Cyclin H/MNAT1 (Homo sapiens); test: Ratio of Ki CDK7/cyclinH/MAT1 (unknown origin) to Kinact CDK7/cyclinH/MAT1 (unknown origin) assessed as inactivation constant; type: protein-complex assay

- Kinact [1]: 8.2 h⁻¹
- Ratio [2]: 0.131 µM⁻¹ s⁻¹
SMILES: CN(C)C/C=C/C(=O)Nc1ccc(C(=O)N[C@@]2(C)CCC[C@@H](Nc3ncc(Cl)c(-c4c[nH]c5ccccc45)n3)C2)nc1
